Measurements: patent US20240217953A1, “BICYCLIC SUBSTITUTED AROMATIC CARBOXYLIC ACID COMPOUNDS” (CHIA TAI TIANQING PHARMACEUTICAL GROUP CO., LTD., priority 2021, published 2024)
Where two headings read alike, the source gives them in different places.

Sequences of proteins named here, by UniProt entry; tags and fusion partners are left off. Residues count along the entry.
UniProt P00751, 26-764 limits assumed: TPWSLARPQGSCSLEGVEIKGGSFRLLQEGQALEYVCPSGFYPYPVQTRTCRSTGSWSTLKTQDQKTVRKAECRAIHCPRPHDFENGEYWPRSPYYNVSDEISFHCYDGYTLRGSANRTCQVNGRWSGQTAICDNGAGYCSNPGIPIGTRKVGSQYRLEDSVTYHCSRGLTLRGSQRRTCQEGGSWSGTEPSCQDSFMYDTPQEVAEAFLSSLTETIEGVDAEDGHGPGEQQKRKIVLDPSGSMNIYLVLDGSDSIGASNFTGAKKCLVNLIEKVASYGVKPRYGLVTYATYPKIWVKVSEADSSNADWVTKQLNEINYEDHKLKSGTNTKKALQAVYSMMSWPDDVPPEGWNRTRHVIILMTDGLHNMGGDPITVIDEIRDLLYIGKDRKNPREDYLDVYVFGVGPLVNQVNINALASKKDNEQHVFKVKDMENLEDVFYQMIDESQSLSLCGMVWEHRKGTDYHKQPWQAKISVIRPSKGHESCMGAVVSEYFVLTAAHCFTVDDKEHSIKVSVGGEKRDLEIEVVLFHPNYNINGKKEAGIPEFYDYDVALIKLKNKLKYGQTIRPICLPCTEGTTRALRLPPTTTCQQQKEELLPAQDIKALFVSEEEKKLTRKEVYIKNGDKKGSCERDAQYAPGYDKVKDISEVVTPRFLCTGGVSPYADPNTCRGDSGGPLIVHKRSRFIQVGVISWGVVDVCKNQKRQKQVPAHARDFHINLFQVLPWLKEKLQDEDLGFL

How the values were obtained:
[1] = target: human complement Factor B protein (Homo sapiens, UniProt P00751); test: Human complement Factor B protein binding determination (TR-FRET method)
[2] = target: complement alternative pathway in human serum; test: Inhibition of Wieslab complement alternative pathway activation (enzyme activity determination); details: read-out: IC50 for alternative pathway membrane attack complex (AP MAC), human serum diluted 1:23, Wieslab alternative pathway kit, absorbance at 405 nm

**Q.** How did the IC50 ([1]; read-out: IC50 for binding of human complement Factor B protein, biotinylated Factor B 25 nM, Cy5-labeled probe 75 nM, PBS pH 7.4, 2 h, tested form: HCl) turn out when `COc1cc(C)c2[nH]ccc2c1CN1C2CCC1(c1ccc(C(=O)O)cc1)CC(OC(F)F)C2` (stereo not shown) was run?
**A.** < 100 nM

**Q.** For `CCOC1CC2CCC(c3ccc(C(=O)O)cc3)(C1)N2Cc1c(C)cc(C)c2[nH]ccc12` (stereo not shown), which IC50 ([1]; read-out: IC50 for binding of human complement Factor B protein, biotinylated Factor B 25 nM, Cy5-labeled probe 75 nM, PBS pH 7.4, 2 h) is on record?
**A.** < 100 nM

**Q.** What about the IC50 [2] of the same compound?
**A.** < 100 nM

**Q.** Which IC50 ([2]; tested form: formate) does the source give for `CCOC1CC2CCC(c3ccc(C(=O)O)cc3)(C1)N2Cc1c(OC)cc(C)c2[nH]ccc12` (single isomer, unassigned) here?
**A.** < 100 nM
